Sequences of proteins named here, by UniProt entry; tags and fusion partners are left off. A change or cut given only in a name is not applied to a line headed by its entry.
UniProt P07333, whole entry, looked up: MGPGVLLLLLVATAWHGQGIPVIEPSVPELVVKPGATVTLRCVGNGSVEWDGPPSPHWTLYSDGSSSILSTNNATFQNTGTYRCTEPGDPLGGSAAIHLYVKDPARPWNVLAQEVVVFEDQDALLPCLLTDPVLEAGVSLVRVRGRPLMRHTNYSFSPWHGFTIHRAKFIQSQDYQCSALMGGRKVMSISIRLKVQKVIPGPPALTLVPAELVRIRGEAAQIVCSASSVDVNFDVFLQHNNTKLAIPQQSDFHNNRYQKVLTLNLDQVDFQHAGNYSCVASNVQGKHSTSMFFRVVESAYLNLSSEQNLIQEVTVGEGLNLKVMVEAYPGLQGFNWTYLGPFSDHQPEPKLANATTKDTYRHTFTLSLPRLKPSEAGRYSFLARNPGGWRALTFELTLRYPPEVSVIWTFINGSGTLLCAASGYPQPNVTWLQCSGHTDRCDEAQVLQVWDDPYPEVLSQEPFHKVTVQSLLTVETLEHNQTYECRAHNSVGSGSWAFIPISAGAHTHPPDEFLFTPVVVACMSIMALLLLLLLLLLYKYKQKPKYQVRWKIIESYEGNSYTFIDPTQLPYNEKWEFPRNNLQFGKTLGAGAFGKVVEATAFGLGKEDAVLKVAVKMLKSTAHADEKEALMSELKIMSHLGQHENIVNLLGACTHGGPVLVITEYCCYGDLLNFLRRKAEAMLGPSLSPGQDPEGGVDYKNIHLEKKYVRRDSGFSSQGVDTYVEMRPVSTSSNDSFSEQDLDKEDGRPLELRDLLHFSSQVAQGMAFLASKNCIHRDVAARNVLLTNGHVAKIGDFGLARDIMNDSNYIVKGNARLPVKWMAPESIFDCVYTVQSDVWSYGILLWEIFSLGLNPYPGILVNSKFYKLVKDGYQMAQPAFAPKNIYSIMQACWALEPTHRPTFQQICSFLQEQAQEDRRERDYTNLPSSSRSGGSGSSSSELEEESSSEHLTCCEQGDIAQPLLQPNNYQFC
UniProt Q14164: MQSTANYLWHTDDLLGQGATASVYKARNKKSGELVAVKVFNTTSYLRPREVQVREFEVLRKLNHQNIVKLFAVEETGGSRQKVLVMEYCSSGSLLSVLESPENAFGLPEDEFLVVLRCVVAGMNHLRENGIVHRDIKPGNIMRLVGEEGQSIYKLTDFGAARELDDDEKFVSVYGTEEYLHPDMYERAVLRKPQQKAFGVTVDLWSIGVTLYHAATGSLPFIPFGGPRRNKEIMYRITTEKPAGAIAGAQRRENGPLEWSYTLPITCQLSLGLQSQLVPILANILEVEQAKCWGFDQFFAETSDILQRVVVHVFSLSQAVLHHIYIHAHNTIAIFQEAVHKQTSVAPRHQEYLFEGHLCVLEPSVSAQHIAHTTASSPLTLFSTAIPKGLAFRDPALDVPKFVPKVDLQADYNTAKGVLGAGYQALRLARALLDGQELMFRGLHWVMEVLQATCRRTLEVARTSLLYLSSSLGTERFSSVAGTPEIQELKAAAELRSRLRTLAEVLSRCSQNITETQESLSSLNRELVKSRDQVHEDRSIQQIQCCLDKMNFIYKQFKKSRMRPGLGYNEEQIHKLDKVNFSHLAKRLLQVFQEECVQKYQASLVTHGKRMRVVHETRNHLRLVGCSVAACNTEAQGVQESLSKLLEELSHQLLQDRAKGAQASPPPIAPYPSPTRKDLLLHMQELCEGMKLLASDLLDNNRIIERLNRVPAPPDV
UniProt O75676: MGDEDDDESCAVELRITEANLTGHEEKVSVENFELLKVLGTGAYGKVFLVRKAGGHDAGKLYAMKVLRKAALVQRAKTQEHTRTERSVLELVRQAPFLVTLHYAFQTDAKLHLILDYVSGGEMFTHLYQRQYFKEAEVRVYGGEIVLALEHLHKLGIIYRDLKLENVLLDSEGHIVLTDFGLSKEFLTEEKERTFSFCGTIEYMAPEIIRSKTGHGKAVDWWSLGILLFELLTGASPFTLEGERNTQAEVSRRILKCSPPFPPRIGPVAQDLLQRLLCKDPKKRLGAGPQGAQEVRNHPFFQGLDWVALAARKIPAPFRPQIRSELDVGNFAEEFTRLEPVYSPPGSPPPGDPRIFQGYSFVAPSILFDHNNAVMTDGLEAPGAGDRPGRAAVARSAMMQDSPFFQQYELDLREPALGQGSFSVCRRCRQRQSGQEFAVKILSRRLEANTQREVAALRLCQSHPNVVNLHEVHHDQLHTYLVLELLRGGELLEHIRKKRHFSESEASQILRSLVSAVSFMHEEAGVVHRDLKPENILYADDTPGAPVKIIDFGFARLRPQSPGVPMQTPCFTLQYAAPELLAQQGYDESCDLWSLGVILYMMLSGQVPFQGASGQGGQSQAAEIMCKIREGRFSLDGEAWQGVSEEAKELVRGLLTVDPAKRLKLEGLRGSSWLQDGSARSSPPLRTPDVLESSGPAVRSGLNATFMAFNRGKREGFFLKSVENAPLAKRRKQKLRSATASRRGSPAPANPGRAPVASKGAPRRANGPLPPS
UniProt Q6P2M8: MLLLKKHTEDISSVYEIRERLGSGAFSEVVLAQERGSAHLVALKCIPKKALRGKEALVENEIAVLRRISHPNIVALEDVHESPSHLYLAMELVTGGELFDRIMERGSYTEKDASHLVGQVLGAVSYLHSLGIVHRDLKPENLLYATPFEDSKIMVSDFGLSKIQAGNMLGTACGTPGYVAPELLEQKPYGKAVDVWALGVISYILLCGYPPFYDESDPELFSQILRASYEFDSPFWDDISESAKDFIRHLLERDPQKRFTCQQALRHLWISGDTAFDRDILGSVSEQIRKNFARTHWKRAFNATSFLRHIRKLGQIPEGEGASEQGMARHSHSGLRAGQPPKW
UniProt Q02763: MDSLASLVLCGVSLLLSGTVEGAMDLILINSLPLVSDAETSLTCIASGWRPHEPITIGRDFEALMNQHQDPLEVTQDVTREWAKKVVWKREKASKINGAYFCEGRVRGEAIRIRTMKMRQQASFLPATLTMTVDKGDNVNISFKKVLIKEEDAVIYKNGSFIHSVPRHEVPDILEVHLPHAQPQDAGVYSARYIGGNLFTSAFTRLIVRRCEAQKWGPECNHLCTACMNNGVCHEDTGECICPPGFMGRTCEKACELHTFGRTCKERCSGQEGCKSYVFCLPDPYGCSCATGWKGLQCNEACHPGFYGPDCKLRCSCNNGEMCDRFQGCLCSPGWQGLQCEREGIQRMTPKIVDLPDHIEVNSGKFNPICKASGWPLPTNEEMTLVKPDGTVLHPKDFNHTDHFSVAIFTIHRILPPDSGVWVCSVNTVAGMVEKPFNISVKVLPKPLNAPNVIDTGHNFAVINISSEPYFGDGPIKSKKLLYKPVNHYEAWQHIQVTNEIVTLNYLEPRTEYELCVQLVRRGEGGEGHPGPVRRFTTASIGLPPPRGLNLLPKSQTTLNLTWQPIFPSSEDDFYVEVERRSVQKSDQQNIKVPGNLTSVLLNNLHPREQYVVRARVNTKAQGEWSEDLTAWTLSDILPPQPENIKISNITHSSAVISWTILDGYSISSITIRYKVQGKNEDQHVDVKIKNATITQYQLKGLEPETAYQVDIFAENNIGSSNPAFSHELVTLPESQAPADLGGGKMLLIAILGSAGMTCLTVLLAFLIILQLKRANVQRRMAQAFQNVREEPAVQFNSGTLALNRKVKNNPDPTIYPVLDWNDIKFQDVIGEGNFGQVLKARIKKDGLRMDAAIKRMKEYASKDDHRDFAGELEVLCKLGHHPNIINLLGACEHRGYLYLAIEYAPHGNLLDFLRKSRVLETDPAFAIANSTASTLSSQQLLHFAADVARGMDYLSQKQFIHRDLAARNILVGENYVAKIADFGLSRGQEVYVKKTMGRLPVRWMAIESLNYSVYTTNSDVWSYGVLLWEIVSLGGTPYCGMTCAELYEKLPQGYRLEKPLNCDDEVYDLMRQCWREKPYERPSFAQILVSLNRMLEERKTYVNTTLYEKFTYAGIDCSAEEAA
UniProt P32298, whole entry, looked up: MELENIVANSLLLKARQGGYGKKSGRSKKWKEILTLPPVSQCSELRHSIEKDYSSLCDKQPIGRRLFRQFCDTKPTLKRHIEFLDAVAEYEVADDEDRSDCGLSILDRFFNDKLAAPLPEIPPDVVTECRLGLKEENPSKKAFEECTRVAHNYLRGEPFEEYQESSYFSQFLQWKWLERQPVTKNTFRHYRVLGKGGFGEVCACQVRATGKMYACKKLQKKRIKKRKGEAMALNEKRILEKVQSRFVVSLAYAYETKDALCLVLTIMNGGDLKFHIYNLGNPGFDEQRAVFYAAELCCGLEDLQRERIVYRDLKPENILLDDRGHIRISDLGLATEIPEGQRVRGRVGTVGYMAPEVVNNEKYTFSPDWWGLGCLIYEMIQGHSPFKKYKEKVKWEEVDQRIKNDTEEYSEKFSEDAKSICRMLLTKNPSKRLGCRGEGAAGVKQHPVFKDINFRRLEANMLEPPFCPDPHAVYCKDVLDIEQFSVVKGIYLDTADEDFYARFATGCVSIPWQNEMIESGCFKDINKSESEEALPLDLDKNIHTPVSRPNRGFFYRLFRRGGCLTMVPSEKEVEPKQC
UniProt Q05655: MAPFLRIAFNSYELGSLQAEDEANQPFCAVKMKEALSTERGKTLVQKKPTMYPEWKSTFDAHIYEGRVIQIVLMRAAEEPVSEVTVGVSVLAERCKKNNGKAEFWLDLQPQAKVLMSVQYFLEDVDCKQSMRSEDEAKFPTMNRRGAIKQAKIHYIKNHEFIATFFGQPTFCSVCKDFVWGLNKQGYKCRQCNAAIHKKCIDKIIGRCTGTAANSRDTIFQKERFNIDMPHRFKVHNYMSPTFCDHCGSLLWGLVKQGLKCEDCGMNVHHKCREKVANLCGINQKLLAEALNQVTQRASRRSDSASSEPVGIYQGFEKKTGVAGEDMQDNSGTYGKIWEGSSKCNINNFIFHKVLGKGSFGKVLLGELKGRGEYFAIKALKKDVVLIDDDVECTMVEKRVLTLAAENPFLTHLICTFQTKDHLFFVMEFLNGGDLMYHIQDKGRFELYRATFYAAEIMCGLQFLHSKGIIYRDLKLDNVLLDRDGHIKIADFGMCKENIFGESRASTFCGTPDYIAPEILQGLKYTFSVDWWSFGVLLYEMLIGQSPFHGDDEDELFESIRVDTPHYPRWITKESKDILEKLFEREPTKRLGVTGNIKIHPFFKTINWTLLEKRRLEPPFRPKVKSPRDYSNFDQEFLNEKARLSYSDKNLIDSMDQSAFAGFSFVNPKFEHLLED
UniProt P51813: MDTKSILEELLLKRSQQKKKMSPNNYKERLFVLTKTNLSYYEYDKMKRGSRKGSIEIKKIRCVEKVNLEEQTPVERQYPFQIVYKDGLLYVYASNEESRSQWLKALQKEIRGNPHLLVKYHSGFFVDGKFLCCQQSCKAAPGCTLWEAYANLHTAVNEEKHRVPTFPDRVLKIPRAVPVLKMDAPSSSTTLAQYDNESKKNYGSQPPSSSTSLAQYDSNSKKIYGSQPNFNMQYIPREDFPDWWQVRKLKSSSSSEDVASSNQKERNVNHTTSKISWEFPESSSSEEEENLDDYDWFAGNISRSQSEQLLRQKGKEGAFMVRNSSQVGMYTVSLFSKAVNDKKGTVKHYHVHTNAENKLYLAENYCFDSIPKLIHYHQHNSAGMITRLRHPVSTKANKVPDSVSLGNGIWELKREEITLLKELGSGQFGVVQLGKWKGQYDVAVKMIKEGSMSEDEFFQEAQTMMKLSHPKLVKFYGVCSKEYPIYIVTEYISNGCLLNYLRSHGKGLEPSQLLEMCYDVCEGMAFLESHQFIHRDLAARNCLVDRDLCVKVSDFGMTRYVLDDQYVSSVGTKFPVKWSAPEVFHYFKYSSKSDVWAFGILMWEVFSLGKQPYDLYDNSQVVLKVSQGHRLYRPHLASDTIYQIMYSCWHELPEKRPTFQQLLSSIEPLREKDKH
UniProt P30291: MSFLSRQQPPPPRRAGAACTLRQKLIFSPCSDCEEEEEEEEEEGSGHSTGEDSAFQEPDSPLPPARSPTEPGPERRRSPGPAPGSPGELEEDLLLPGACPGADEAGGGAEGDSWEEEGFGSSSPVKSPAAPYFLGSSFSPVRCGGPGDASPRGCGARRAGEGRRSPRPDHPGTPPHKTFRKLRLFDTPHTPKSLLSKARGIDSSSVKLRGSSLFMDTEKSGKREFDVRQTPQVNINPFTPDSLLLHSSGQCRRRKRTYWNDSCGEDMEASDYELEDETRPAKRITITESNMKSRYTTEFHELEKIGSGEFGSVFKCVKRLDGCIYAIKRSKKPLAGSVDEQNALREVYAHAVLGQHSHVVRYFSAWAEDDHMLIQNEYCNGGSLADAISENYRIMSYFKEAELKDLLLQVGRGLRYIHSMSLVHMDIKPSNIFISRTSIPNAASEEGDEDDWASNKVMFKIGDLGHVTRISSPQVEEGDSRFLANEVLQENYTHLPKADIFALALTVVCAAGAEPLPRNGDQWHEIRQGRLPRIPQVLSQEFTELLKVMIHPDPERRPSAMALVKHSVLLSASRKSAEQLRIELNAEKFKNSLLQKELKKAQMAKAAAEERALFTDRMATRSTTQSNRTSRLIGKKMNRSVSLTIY

According to the kinase profiling compilation of Christmann-Franck et al. (2016):

Legend:
Experiment in all cases: radiometric filter-binding kinase assay, Kinase HotSpot
Conditions in all cases: compound 0.5 µM; ATP 10 µM
CSF1R (human) = CSF1R (human) (UniProt P07333)
IKBKE (human) = IKBKE (human) (UniProt Q14164)
GRK7 (human) = GRK7 (human) (UniProt Q8WTQ7)
CSNK2A2 (human) = CSNK2A2 (human) (UniProt P19784)
MAPK8 (human) = MAPK8 (human) (UniProt P45983)
MYLK (human) = MYLK (human) (UniProt Q15746)
RPS6KA4 KD2 (human) = RPS6KA4 KD2 (human) (UniProt O75676)
PNCK (human) = PNCK (human) (UniProt Q6P2M8)
HIPK2 (human) = HIPK2 (human) (UniProt Q9H2X6)
TEK (human) = TEK (human) (UniProt Q02763)
MAP2K1 (human) = MAP2K1 (human) (UniProt Q02750)
INSRR (human) = INSRR (human) (UniProt P14616)
GRK4 (human) = GRK4 (human) (UniProt P32298)
PRKCD (human) = PRKCD (human) (UniProt Q05655)
LRRK2 (human) = LRRK2 (human) (UniProt Q5S007)
CLK2 (human) = CLK2 (human) (UniProt P49760)
PAK7 (human) = PAK7 (human) (UniProt Q9P286)
PHKG1 (human) = PHKG1 (human) (UniProt Q16816)
TSSK2 (human) = TSSK2 (human) (UniProt Q96PF2)
PKN1 (human) = PKN1 (human) (UniProt Q16512)
BMX (human) = BMX (human) (UniProt P51813)
TSSK1B (human) = TSSK1B (human) (UniProt Q9BXA7)
HCK (human) = HCK (human) (UniProt P08631)
CAMKK2 (human) = CAMKK2 (human) (UniProt Q96RR4)
MAPK1 (human) = MAPK1 (human) (UniProt P28482)
EPHA1 (human) = EPHA1 (human) (UniProt P21709)
PKN2 (human) = PKN2 (human) (UniProt Q16513)
PTK2 (human) = PTK2 (human) (UniProt Q05397)
PLK3 (human) = PLK3 (human) (UniProt Q9H4B4)
WEE1 (human) = WEE1 (human) (UniProt P30291)
ERBB4 (human) = ERBB4 (human) (UniProt Q15303)
CHEK1 (human) = CHEK1 (human) (UniProt O14757)
MAPKAPK2 (human) = MAPKAPK2 (human) (UniProt P49137)
STK3 (human) = STK3 (human) (UniProt Q13188)
PLK1 (human) = PLK1 (human) (UniProt P53350)
MAPK9 (human) = MAPK9 (human) (UniProt P45984)
PRKCG (human) = PRKCG (human) (UniProt P05129)
AKT3 (human) = AKT3 (human) (UniProt Q9Y243)
PDGFRA (human) = PDGFRA (human) (UniProt P16234)
SLK (human) = SLK (human) (UniProt Q9H2G2)
PRKCZ (human) = PRKCZ (human) (UniProt Q05513)
MATK (human) = MATK (human) (UniProt P42679)

O=C1c2ccccc2-[n+]2ccc3c([nH]c4ccccc43)c21
residual activity (CSF1R (human)): 89.9%
residual activity (IKBKE (human)): 104%
residual activity (GRK7 (human)): 94.4%
residual activity (CSNK2A2 (human)): 92.6%
residual activity (MAPK8 (human)): 110%
residual activity (MYLK (human)): 87.6%
residual activity (RPS6KA4 KD2 (human)): 90.6%
residual activity (PNCK (human)): 93.7%
residual activity (HIPK2 (human)): 97.9%
residual activity (TEK (human)): 83.4%
residual activity (MAP2K1 (human)): 92.9%
residual activity (INSRR (human)): 94.1%
residual activity (GRK4 (human)): 92.1%
residual activity (PRKCD (human)): 89.6%
residual activity (LRRK2 (human)): 70.1%
residual activity (CLK2 (human)): 99.5%
residual activity (PAK7 (human)): 96.2%
residual activity (PHKG1 (human)): 100%
residual activity (TSSK2 (human)): 95.6%
residual activity (PKN1 (human)): 101%
residual activity (BMX (human)): 81.7%
residual activity (TSSK1B (human)): 89.9%
residual activity (HCK (human)): 114%
residual activity (CAMKK2 (human)): 98.6%
residual activity (MAPK1 (human)): 119%
residual activity (EPHA1 (human)): 79.5%
residual activity (PKN2 (human)): 102%
residual activity (PTK2 (human)): 103%
residual activity (PLK3 (human)): 73%
residual activity (WEE1 (human)): 89.5%
residual activity (ERBB4 (human)): 93.6%
residual activity (CHEK1 (human)): 98.8%
residual activity (MAPKAPK2 (human)): 105%
residual activity (STK3 (human)): 96.7%
residual activity (PLK1 (human)): 75.9%
residual activity (MAPK9 (human)): 91.2%
residual activity (PRKCG (human)): 101%
residual activity (AKT3 (human)): 101%
residual activity (PDGFRA (human)): 97.4%
residual activity (SLK (human)): 83.4%
residual activity (PRKCZ (human)): 93.7%
residual activity (MATK (human)): 89.9%

COc1cc(OC)c(/C=C2\C(=O)Nc3ccccc32)c(OC)c1
residual activity (CSF1R (human)): 99.3%
residual activity (IKBKE (human)): 101%
residual activity (GRK7 (human)): 99.2%
residual activity (CSNK2A2 (human)): 99%
residual activity (MAPK8 (human)): 99.8%
residual activity (MYLK (human)): 97.3%
residual activity (RPS6KA4 KD2 (human)): 99.7%
residual activity (PNCK (human)): 96.5%
residual activity (HIPK2 (human)): 102%
residual activity (TEK (human)): 94.2%
residual activity (MAP2K1 (human)): 102%
residual activity (INSRR (human)): 94.9%
residual activity (GRK4 (human)): 98.2%
residual activity (PRKCD (human)): 87.8%
residual activity (LRRK2 (human)): 92.2%
residual activity (CLK2 (human)): 96.2%
residual activity (PAK7 (human)): 95.8%
residual activity (PHKG1 (human)): 98.4%
residual activity (TSSK2 (human)): 99.8%
residual activity (PKN1 (human)): 101%
residual activity (BMX (human)): 101%
residual activity (TSSK1B (human)): 98.3%
residual activity (HCK (human)): 106%
residual activity (CAMKK2 (human)): 98.8%
residual activity (MAPK1 (human)): 81%
residual activity (EPHA1 (human)): 88.8%
residual activity (PKN2 (human)): 83.8%
residual activity (PTK2 (human)): 102%
residual activity (PLK3 (human)): 97.7%
residual activity (WEE1 (human)): 94.2%
residual activity (ERBB4 (human)): 101%
residual activity (CHEK1 (human)): 101%
residual activity (MAPKAPK2 (human)): 103%
residual activity (STK3 (human)): 115%
residual activity (PLK1 (human)): 100%
residual activity (MAPK9 (human)): 104%
residual activity (PRKCG (human)): 95.4%
residual activity (AKT3 (human)): 98.1%
residual activity (PDGFRA (human)): 95.2%
residual activity (SLK (human)): 94.3%
residual activity (PRKCZ (human)): 91.7%
residual activity (MATK (human)): 98.4%
